Values of other authors in publication PMC12071944, “Interaction Between Glucagon-like Peptide 1 and Its Analogs with Amyloid-β Peptide Affects Its Fibrillation and Cytotoxicity” (International Journal of Molecular Sciences, 2025).

Target: Aβ
Set-up: method as in PMID 38732194
Details: ref [58]; read-out: KD for Aβ binding; cited from earlier work

human serum albumin
Kd: ~100 nM
